Measured values as given in patent US7645802B2 (Biovail Laboratories International SRL., priority 2005, dated 2010).

assay: TGA of bupropion salts; format: physicochemical; settings: not given
Method: 2-5 mg of each salt was placed in an aluminium pan and covered with its lid. DSC was run for each sample at the rate of 10 degrees C./min (for HBr salt, different rates were used to investigate for polymorphs) from 30 degrees C. to 400 degrees C. TGA was also used for each of the HBr, HCl, maleate and tosylate salts.
The salts were analyzed by DSC (at 10° C./min from 30° C. up to 400° C.) and the pH (aq. 0.5%), and the moisture content by KF were also measured. The TGA was performed on the HCl, maleate, tosylate and HBr salts.

Row | Substance | thermal stability by TGA
1 | Bupropion tosylate | not thermally stable

assay: not given; settings: Mono- and Diglyceride Surfactants (Table 89); cited from earlier work

Row | Substance | HLB
2 | Lactic acid esters of mono, diglycerides | <10

same assay, conditions: PEG-Sorbitan Fatty Acid Esters (Table 91); cited from earlier work

Row | Substance | HLB
3 | PEG-20 sorbitan monopalmitate | 16
4 | PEG-4 sorbitan monostearate | 9.6
5 | PEG-6 sorbitan tetraoleate | 8.5
6 | PEG-10 sorbitan laurate | >10
7 | PEG-40 sorbitan oleate | 18
8 | PEG-20 sorbitan tristearate | 11
9 | PEG-20 sorbitan trioleate | 11
10 | PEG-6 sorbitan monolaurate | 16

same assay, conditions: Polyethylene Glycol Alkyl Ethers (Table 92); cited from earlier work

Row | Substance | HLB
11 | PEG-2 cetyl ether | 5.3
12 | PEG-20 cetyl ether | 16
13 | PEG-2 stearyl ether | 4.9

same assay, conditions: Polyethylene Glycol Alkyl Phenol Surfactants (Table 94); cited from earlier work

Row | Substance | HLB
14 | PEG-15-100 octyl phenol ether | >10
15 | PEG-10-100 nonyl phenol | >10
